The values below come from article PMC7073924, “2-Aminomethylene-5-sulfonylthiazole Inhibitors of Lysyl Oxidase (LOX) and LOXL2 Show Significant Efficacy in Delaying Tumor Growth” (Journal of Medicinal Chemistry, 2019).

Amino acid sequences for entries named in this document (tags omitted).
UniProt P27338, whole entry, species assumed: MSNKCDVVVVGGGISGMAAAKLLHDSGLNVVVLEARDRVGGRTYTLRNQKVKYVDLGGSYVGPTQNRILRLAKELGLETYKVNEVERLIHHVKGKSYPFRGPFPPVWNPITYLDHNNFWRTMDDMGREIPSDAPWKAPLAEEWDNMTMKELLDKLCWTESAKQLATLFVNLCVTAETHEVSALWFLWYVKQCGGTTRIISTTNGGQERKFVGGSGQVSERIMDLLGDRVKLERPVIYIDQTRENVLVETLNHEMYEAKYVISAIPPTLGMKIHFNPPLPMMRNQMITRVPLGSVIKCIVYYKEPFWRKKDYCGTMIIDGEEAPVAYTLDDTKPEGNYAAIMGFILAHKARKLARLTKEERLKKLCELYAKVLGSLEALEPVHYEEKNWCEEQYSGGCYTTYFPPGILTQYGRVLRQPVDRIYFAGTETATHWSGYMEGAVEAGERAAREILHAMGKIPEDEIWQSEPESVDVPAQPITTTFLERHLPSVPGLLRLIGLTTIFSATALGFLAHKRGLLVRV
UniProt P21397, whole entry, species assumed: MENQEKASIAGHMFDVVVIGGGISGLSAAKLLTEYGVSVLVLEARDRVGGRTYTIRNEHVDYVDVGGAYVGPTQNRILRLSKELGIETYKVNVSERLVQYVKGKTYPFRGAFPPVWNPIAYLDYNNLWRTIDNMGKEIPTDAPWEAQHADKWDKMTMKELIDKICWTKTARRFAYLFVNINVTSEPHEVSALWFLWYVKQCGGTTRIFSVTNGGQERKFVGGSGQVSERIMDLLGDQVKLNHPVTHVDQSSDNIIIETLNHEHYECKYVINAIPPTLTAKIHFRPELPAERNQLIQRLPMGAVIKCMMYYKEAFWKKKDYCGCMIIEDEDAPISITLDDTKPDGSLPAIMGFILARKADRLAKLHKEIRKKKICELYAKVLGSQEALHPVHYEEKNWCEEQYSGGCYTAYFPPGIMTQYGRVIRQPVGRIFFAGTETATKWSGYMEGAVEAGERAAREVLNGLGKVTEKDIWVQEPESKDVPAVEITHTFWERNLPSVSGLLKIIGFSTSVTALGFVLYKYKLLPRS

In general, IC50 refers to the concentration that gives 50% inhibition.

One test addresses T1, LOXL2 (Homo sapiens, UniProt Q9Y4K0).
T1 sequence (Q9Y4K0 26-774): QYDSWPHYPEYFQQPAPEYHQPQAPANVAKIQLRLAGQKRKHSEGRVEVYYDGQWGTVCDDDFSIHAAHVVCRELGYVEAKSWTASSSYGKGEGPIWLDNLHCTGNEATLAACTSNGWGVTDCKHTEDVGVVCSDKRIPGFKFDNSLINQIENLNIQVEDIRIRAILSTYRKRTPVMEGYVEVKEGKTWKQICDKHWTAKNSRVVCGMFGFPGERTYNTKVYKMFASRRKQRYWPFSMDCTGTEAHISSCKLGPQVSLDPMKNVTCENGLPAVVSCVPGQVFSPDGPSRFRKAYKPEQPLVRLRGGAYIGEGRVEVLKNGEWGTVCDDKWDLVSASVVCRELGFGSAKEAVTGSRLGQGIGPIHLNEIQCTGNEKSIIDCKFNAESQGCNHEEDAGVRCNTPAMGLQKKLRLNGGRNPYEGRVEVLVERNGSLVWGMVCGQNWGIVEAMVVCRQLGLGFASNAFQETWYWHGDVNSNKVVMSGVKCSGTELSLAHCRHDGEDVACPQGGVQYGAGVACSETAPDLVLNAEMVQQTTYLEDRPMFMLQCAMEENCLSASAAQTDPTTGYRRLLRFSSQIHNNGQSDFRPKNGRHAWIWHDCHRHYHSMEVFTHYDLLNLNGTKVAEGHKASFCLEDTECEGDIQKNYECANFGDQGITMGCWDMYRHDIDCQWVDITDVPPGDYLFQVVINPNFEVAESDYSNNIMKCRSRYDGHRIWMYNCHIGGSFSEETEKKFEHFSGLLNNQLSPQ
The test is described as follows: LOXL2 enzyme assay (Promega ROS-Glo, cadaverine substrate). The test is classed as biochemical. More on the design: Activity (LOXL2 activity used in the RVM model data matrix): unit not given here.

In a further test the target is T2, MAO-B (Homo sapiens, UniProt P27338).
T2 construct: purchased Sigma
Format: biochemical.

A further test concerns the target T3, MAO-A (Homo sapiens, UniProt P21397).
T3 construct: purchased Sigma
The test is classed as biochemical.

The target in the next test is T4, LOX (Sus scrofa, UniProt P45845).
T4 sequence (P45845 1-249): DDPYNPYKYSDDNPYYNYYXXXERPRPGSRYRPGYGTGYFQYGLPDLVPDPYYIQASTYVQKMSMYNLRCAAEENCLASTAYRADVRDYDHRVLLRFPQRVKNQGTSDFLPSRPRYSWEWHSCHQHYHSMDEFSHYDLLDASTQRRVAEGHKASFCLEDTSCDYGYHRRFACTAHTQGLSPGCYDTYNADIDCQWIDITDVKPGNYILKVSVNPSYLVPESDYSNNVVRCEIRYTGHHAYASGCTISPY
Put plainly: LOX enzyme assay (Promega ROS-Glo, cadaverine substrate). Format: biochemical, pig.

SMILES strings stand for the structures. Values joined by “and” are separate entries in the source; they are usually repeats but may differ in a detail not shown here. Equal values may be shown once. Where a name gives a salt, the structure may show the parent alone. Read-outs that look alike come from different tables or passages of the source. Bounds are passed on as bounds.

For `NCc1cnc(S(=O)(=O)c2ccc3ccccc3c2)s1` [Compound 5], the IC50 at LOXL2 (read-out: LOXL2, 1 h, IC50) is 6410 nM and 6020 nM; at LOXL2 (read-out: LOXL2, 3 h, IC50) it was 3540 nM and 3190 nM.

On to `NCc1ncc(S(=O)(=O)c2ccc3ccccc3c2)s1` [Compound 6], for which the “increase in LOXL2 potency on increasing preincubation from 20 min to 1 h” value at LOXL2 is on record as at most 5 fold.

With `CC(C)c1cc(-c2ccccc2)cc(S(=O)(=O)c2cnc(CN)s2)c1` [Compound 7f, (5-((5-Isopropyl-[1,1′-biphenyl]-3-yl)sulfonyl)thiazol-2-yl)methanamine Hydrochloride], the IC50 at LOXL2 (read-out: LOXL2 IC50) was 343 nM and 370 nM.

In the case of `CC(C)(C)c1cc(-c2ccccc2)cc(S(=O)(=O)c2cnc(CN)s2)c1` [Compound 7g, (5-((5-(tert-Butyl)-[1,1′-biphenyl]-3-yl)sulfonyl)thiazol-2-yl)methanamine Hydrochloride], the IC50 on LOXL2 (read-out: LOXL2 IC50) is 1040 nM.

As to `CNc1cc(-c2ccccc2)cc(S(=O)(=O)c2cnc(CN)s2)c1` [Compound 7i, 5-((2-(Aminomethyl)thiazol-5-yl)sulfonyl)-N-methyl-[1,1′-biphenyl]-3-amine Dihydrochloride], at LOXL2 (read-out: LOXL2 IC50), the IC50 is 417 nM and 397 nM.

As to `Cc1ccc(-c2cc(S(=O)(=O)c3cnc(CN)s3)ccc2S(C)(=O)=O)cc1` [Compound 9, (5-((4′-Methyl-6-(methylsulfonyl)-[1,1′-biphenyl]-3-yl)sulfonyl)thiazol-2-yl)methanamine Hydrochloride], the IC50 on LOXL2 (read-out: LOXL2, IC50) amounted to 423 nM.

Turning to `NCc1ncc(S(=O)(=O)C2CCCCC2)s1` [Compound 11, (5-(Cyclohexylsulfonyl)thiazol-2-yl)methanamine Hydrochloride], on LOXL2 (read-out: LOXL2 IC50), the IC50 was 628 nM and 606 nM.

Take `NCc1ncc(S(=O)(=O)c2ccccc2)s1` [Compound 12, (5-(Phenylsulfonyl)thiazol-2-yl)methanamine Hydrochloride]: the IC50 at LOXL2 (read-out: LOXL2 IC50) is 316 nM and 310 nM.

On to `NCc1ncc(S(=O)(=O)c2cccc(-c3ccccc3)c2)s1` [Compound 15, (5-([1,1′-Biphenyl]-3-ylsulfonyl)thiazol-2-yl)methanamine Hydrochloride], for which, at LOXL2 (read-out: LOXL2 IC50), the IC50 was 366 nM and 342 nM.

Take `Cc1ccc(-c2cc(S(C)(=O)=O)cc(S(=O)(=O)c3cnc(CN)s3)c2)cc1` [Compound 18, (5-((4′-Methyl-5-(methylsulfonyl)-[1,1′-biphenyl]-3-yl)sulfonyl)thiazol-2-yl)methanamine Hydrochloride]: the IC50 was 16400 nM and 20000 nM against MAO-B; 103 nM on LOXL2 (read-out: LOXL2 IC50); 100000 nM and 88300 nM against MAO-A. Also, the “Activity (LOXL2 activity used in the RVM model data matrix)” value at LOXL2 is 6.99.

For the compound `CS(=O)(=O)c1cc(-c2ccc(C(F)(F)F)cc2)cc(S(=O)(=O)c2cnc(CN)s2)c1` [Compound 19, (5-((5-(Methylsulfonyl)-4′-(trifluoromethyl)-[1,1′-biphenyl]-3-yl)sulfonyl)thiazol-2-yl)methanamine Hydrochloride], the IC50 on LOXL2 (read-out: LOXL2 IC50) was determined as 174 nM.

As to `CS(=O)(=O)c1cc(-c2ccc(F)cc2)cc(S(=O)(=O)c2cnc(CN)s2)c1` [Compound 20, (5-((4′-Fluoro-5-(methylsulfonyl)-[1,1′-biphenyl]-3-yl)sulfonyl)thiazol-2-yl)methanamine Hydrochloride], the IC50 at LOXL2 (read-out: LOXL2 IC50) is 197 nM and 192 nM.

Consider `Cn1cc(-c2cc(C(F)(F)F)cc(S(=O)(=O)c3cnc(CN)s3)c2)cn1` [Compound 21c, (5-((3-(1-Methyl-1H-pyrazol-4-yl)-5-(trifluoromethyl)phenyl)sulfonyl)thiazol-2-yl)methanamine Hydrochloride], for which the IC50 on LOXL2 (read-out: LOXL2 IC50) was 259 nM and 374 nM.

For `Cn1cc(-c2cc(F)cc(S(=O)(=O)c3cnc(CN)s3)c2)cn1` [Compound 21e, (5-((3-Fluoro-5-(1-methyl-1H-pyrazol-4-yl)phenyl)sulfonyl)thiazol-2-yl)methanamine Hydrochloride], on LOXL2, the “LOXL2 pIC50” value turned out to be 6.84. The IC50 on LOXL2 (read-out: LOXL2 IC50) came to 143 nM.

As to `CS(=O)(=O)c1cc(-c2ccccc2)cc(S(=O)(=O)c2csc(CN)n2)c1` [Compound 22b, (4-((5-(Methylsulfonyl)-[1,1′-biphenyl]-3-yl)sulfonyl)thiazol-2-yl)methanamine Hydrochloride], on LOX, the “activity against LOX (in words)” value is “inactive”.

Regarding `Cn1cc(-c2cc(S(C)(=O)=O)cc(S(=O)(=O)c3csc(CN)n3)c2)cn1` [Compound 22c, (4-((3-(1-Methyl-1H-pyrazol-4-yl)-5-(methylsulfonyl)phenyl)sulfonyl)thiazol-2-yl)methanamine Hydrochloride], on LOX, the “activity against LOX (in words)” value is “inactive”.
